Experimental findings from patent US10456407B2, “Combination therapy for treating cancer” (Epizyme, Inc., priority 2015, dated 2019) are described below.

Each structure is given as a SMILES string.

Assay [1] deals with SU-DHL6 xenografts. Nature of the assay: SU-DHL6 (EZH2 Y646N) lymphoma xenograft study. In kind it is in vivo, mice. To be noted: 28 days.
Assay [2] concerns SU-DHL10 xenografts. The experiment in a line: SU-DHL10 (EZH2 Y646F) lymphoma xenograft study. The class given is in vivo, mice.

Regarding `CCN(c1cc(-c2ccc(CN3CCOCC3)cc2)cc(C(=O)NCc2c(C)cc(C)[nH]c2=O)c1C)C1CCOCC1` [Compound 44], the “tumor growth inhibition / regression” value is given as “significant tumor growth inhibition was not observed” in assay [1] and “Tumor growth inhibition was observed” in assay [2] (28 days). For the same compound, the tumor growth delay entry in assay [2] (after the 28 day dosing, without further dosing) was “dose dependent tumor growth delay benefit”.
